Assay: Pharmacokinetics in rats, i.v.
Assay type: in vivo
Conditions: rat, 1 μmol/kg i.v., n = 5
Description: SD Rats were randomly divided into three groups (n = 5). […] All blood samples were immediately centrifuged at 5000 rpm for 5 min at room temperature, and the plasma obtained was stored at −20 °C before analysis. To the rat plasma (100 μL) was added 10 μL internal standard (80 ~ 100 ng/ml Carbamazepine), followed by mixing with 200 μL methanol with vortexing for 1 min. At this stage, certain amounts of proteins may precipitate out, thus this mixture was centrifuged at 12,000 rpm for 5 min at room temperature to achieve complete separation. The 20 μl supernatant was injected into a HPLC (Symbiosis, Spark, Holland; column: 50 mm × 2.1 mm, 5 μm, Agilent Eclipse Plus) –MS/MS system (ABI 4000 Q-Trap triple quadrupole mass spectrometer) equipped with electrospray ionization (ESI) source in the positive ion mode (Foster City, USA). The HPLC elution gradient was as follows: 0–0.5 min, 5–5% (B); 0.5–3 min, 5–95% (B); 3–4 min, 95–95% (B); 4–4.06 min, 95–5% (B); 4.06–6 min, 5–5% (B); the flow-rate was 0.4 ml/min; A was 0.1% formic acid/Waterl, B was 0.1% formic acid/methanol. […]
The statistical significance of the difference among pharmacokinetic parameters was determined using the mean comparison Student’s t-test, and the resulting P values were lower than 0.05, which is considered to be statistically significant.

CC[C@H](C)[C@H](NC(=O)[C@H](CCC(=O)O)NC(=O)[C@H](CCC(=O)O)NC(=O)[C@H](Cc1ccccc1)NC(=O)[C@H](CC(=O)O)NC(=O)CNC(=O)[C@H](CC(N)=O)NC(=O)CNC(=O)CNC(=O)CNC(=O)CNC(=O)[C@@H]1CCCN1C(=O)[C@H](CCCNC(=N)N)NC(=O)[C@@H]1CCCN1C(=O)[C@H](N)Cc1ccccc1)C(=O)N1CCC[C@H]1C(=O)N[C@@H](CCC(=O)O)C(=O)N[C@@H](CCC(=O)O)C(=O)N[C@@H](Cc1ccc(O)cc1)C(=O)N[C@@H](CC(C)C)C(=O)O [Hirulog-1, reference compound]
half-life (SD, plasma, iv, 1 umol/kg): < 16 min
T1/2: 15.1 ± 1.3 min

Source: paper PMC4585835 (Scientific Reports, 2015)
